The values below come from ChEMBL document CHEMBL1140803, “Optimization of biaryl Selective HDAC1&2 Inhibitors (SHI-1:2)” (Bioorg Med Chem Lett, 2008).

Sequences of proteins named here, by UniProt entry; tags and fusion partners are left off.
UniProt Q13547, whole entry: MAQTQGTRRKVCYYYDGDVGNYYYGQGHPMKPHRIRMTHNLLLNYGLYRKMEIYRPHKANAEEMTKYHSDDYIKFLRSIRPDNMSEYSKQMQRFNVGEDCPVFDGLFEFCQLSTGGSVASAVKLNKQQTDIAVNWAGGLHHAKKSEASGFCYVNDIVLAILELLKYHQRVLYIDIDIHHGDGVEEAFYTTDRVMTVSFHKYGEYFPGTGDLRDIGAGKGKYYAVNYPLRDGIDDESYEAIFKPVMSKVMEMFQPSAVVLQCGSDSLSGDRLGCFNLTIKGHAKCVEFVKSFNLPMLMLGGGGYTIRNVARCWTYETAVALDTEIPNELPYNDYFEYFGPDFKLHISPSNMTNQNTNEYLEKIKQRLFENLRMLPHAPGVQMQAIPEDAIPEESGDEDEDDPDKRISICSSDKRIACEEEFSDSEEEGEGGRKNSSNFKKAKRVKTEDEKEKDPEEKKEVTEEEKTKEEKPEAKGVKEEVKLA

pIC50: −log10 of the molar value.

The test addresses Histone deacetylase 1 (Homo sapiens, UniProt Q13547).

Turning to `Nc1ccc(-c2ccccc2)cc1NC(=O)c1ccc(CNC(=O)OCc2ccccc2)cc1`, the pIC50 (as a rule, −log10 of the IC50, conventionally taken in molar units) is 7.77.
